Experimental data published in PubChem BioAssay AID488912 (Sanford-Burnham Center for Chemical Genomics, 2010).
Only a part is listed here, and it is no random draw. Activity calls are given as the source filed them.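 How the source made its calls: active means mean inhibition across replicates above about 50% (limit read from the data); inactive means the rest.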

By UniProt entry, the sequences of proteins in these tests, tags left out.
UniProt Q96LD8, whole entry: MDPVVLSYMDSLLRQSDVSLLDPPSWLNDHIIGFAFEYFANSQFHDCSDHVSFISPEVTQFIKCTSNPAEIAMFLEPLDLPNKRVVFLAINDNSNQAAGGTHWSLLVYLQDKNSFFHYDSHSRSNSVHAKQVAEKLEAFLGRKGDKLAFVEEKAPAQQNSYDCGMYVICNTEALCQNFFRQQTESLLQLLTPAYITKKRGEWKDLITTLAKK

The compounds below were run against Sentrin-specific protease 8 (Homo sapiens) (UniProt Q96LD8) (assay: human SENP8 peptidase blockers, hit retest – biochemical, luminescence, single concentration, confirmation (AID 488912)). Conditions: Recombinant SENP8, Z-RLRGG-aminoluciferin luminescence, 60 min; at 12.5 µM; active compounds read high.
For `CC1=C2N=C(C=C3N=C(C(C)=C4[N-][C@@](C)([C@@H]5N=C1[C@](C)(CCC(=O)NC[C@@H](C)OP(=O)([O-])O[C@H]1[C@@H](O)[C@@H](n6cnc7cc(C)c(C)cc76)O[C@@H]1CO)[C@H]5CC(N)=O)[C@@](C)(CC(N)=O)[C@@H]4CCC(N)=O)[C@@](C)(CC(N)=O)[C@@H]3CCC(N)=O)C(C)(C)[C@@H]2CCC(N)=O.[C-]#N.[Co+3]`, the inhibition was inactive: 32.5%. With `CP(=O)(Nc1ccccn1)Oc1ccc(Cl)cc1` (configuration not stated) the inhibition was inactive: 9.3%.
